From ChEMBL document CHEMBL1909509, “Mepyramine-JNJ7777120-hybrid compounds show high affinity to hH(1)R, but low affinity to hH(4)R” (Bioorg Med Chem Lett, 2011)
Activity calls are given as the source filed them. The rule behind the calls is not given here.

Chains of the proteins cited; added tags and fusions are not shown.
UniProt P31389, whole entry, looked up: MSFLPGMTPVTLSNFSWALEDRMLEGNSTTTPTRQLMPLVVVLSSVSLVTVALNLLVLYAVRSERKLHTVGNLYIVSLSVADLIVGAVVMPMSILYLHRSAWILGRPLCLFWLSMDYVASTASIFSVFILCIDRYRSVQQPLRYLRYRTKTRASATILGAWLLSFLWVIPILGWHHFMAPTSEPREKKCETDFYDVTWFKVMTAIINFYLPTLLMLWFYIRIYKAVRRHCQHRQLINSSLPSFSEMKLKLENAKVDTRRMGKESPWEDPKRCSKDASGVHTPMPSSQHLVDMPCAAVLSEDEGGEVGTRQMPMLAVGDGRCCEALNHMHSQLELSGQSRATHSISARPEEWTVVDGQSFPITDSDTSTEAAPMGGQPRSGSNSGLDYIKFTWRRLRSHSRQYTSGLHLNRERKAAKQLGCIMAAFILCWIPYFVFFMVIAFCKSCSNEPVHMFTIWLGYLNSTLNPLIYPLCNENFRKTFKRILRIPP

Target: Histamine H1 receptor (Cavia porcellus) (UniProt P31389)
Test: Partial agonist activity at H1R in guinea pig ileum assessed as inhibition of histamine-induced muscle contraction after 15 mins
Type: functional, tissue-based
Outline: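 Isolated guinea-pig ileum, contraction induced by histamine; test ligand incubated 15 min before the histamine response.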

## O=C(c1cc2ccccc2[nH]1)N1CCN(CCN2CCC(Nc3nc4ccccc4n3Cc3ccc(F)cc3)CC2)CC1
  inhibition: inactive
